In US9345766B2, “Combination therapies comprising anti-ERBB3 agents” (Merrimack Pharmaceuticals, Inc., priority 2012, dated 2016):

Legend:
[1] = test system: phospho-ErbB3 (pErbB3); experiment: Cell signaling assay, pErbB3 ELISA in heregulin-stimulated BT474-M3 cells; format: cell-based; settings: 5 nM heregulin for 10 min vs unstimulated (basal)
Description: Cell lysates are probed for phospho-ErbB3 (pErbB3), and phospho-AKT (pAKT) by ELISA as described previously (Schoeberl et al, 2009) Inhibitor IC50 values are calculated by fitting dose-response data to a 4-parameter sigmoidal curve (GraphPad Prism®, GraphPad Software, Inc., La Jolla, Calif.).
Model-generated dose-response curves overlay the experimental data (FIG. 7a). […] Untreated and heregulin-stimulated cells were probed for pErbB3 and pAKT and the IC50 was calculated (FIG. 7b).
Amounts of pAKT and pErbB3 were measured by ELISA essentially as described.

[2] = test system: BT474-M3 cells; experiment: Spheroid in vitro tumor model assay, estrogen-stimulated; format: cell-based; settings: estrogen-stimulated BT474-M3 spheroids, dose range
[3] = test system: BT474-M3 cells; experiment: Spheroid in vitro tumor model assay, dual ligand (estrogen and heregulin)-stimulated; settings: dual ligand (estrogen and heregulin) stimulated spheroids, dose range
[4] = test system: BT474-M3 cells; experiment: Spheroid in vitro tumor model assay, heregulin-stimulated; format: cell-based; settings: heregulin (HRG)-stimulated BT474-M3 spheroids, dose range

Row | Molecule | inhibition of heregulin-activated signaling (pErbB3 and pAKT) [1] | spheroid growth [2] | spheroid growth [3] | spheroid growth [4]
1 | CS(=O)(=O)CCNCc1ccc(-c2ccc3ncnc(Nc4ccc(OCc5cccc(F)c5)c(Cl)c4)c3c2)o1 [lapatinib] | not an effective inhibitor of heregulin-activated signaling | – | – | –
2 | MM-111: bispecific anti-ErbB2/anti-ErbB3 antibody, scFv HSA conjugate, amino acid sequence SEQ ID NO:1 | – | showed inhibitory effects on spheroid growth | – | –
3 | C[C@]12CC[C@@H]3c4ccc(O)cc4C[C@@H](CCCCCCCCC[S+]([O-])CCCC(F)(F)C(F)(F)F)[C@H]3[C@@H]1CC[C@@H]2O (some centres unmarked) [fulvestrant] | – | showed inhibitory effects on spheroid growth | inhibited spheroid growth | did not inhibit heregulin stimulated spheroid growth
